## Yeast mating assay 2: variants of the scFv Ab-91

From the AlphaSeq antibody data of Engelhart et al. 2022 (doi:10.1038/s41597-022-01779-4), copy in the FLAb collection.

Target: peptide PDVDLGDISGINAS, taken from heptad repeat 2 (HR2) of SARS-CoV-2 spike.

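Phage display of a naive human antibody library on the peptide gave the parent. Library AAYL51 holds single substitutions and randomly drawn double and triple substitutions in the CDRs. AlphaSeq pools MATa yeast showing the antibodies with MATalpha yeast showing the peptide. Pairs that bind mate more often; barcode pairs of the diploids are counted by sequencing. Scores were corrected for input abundance and mapped to Kd with protein pairs of known affinity run in the same pool. The assay was run in three technical replicates.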

Each scFv is VL, a (GGGGS)3 linker, VH, as in the parent Ab-91, and differs from it in the CDRs of the heavy chain only.
VL: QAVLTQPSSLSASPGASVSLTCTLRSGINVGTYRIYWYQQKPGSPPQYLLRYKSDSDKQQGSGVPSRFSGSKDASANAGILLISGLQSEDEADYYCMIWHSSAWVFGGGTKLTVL
VH: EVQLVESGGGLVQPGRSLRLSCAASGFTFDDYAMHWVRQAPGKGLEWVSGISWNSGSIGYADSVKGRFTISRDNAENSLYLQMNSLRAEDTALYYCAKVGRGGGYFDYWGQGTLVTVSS

Substitutions are numbered in sequence along the VH above, starting at 1 (not Kabat). Values are log10 of the apparent Kd in nM; lower means stronger binding. A mean of the replicates is given; it leaves out those without a signal. "ND" means that the variant was in the library but no mating with the target was seen in that replicate; the authors take this as a sign of poor binding, and no number exists. Three control strains display no target. For library AAYL51, 21% of the pairings with them gave a signal, with a median of 4.54 and one signal in twenty below 3.26, so weak values seen in few replicates may be background. The control count says in how many pairings with the empty strains this scFv gave a signal, with their mean in brackets.

changes,log10 Kd (nM) by replicate,"log10 Kd (nM), mean",empty controls
I58V V99Y Y108T,ND ND ND,ND,0/9
N54M S55F Y105W,4.58 4.41 ND,4.49,5/9 (4.64)
S57P I58H G59L,ND ND ND,ND,4/9 (3.93)
Y60G V99H,ND ND ND,ND,0/9
G50V G104F,4.30 ND 6.47,5.39,8/9 (5.03)
Y60P F106T D107M,4.70 5.34 ND,5.02,3/9 (4.31)
D30S V99R F106W,ND ND ND,ND,0/9
F29S V64K G104M,ND 3.80 ND,3.80,1/9 (4.61)
G26A G59H F106T,ND ND ND,ND,0/9
Y32A S57E V99F,ND ND ND,ND,0/9
S63I G100L Y105W,4.54 ND ND,4.54,0/9
D30M G59D D62I,4.36 4.67 5.95,5.00,5/9 (5.22)
T28F S52K G104E,ND ND ND,ND,0/9
H35D S52Q A61L,4.68 5.54 4.90,5.04,6/9 (5.12)
T28P G56V G59L,4.91 ND ND,4.91,0/9
A33I H35C G50E,ND 3.43 ND,3.43,0/9
G26I F29P S63F,5.81 ND ND,5.81,3/9 (4.20)
G56K V64K,ND ND ND,ND,1/9 (3.97)
Y32S Y60L R101P,ND ND ND,ND,0/9
F27I S63C K65L,ND 3.83 ND,3.83,0/9
I51C I58F,4.62 ND ND,4.62,2/9 (4.14)
W53S S57N F106Q,ND 5.77 3.99,4.88,3/9 (3.83)
F29R I51T S63A,ND ND ND,ND,1/9 (3.20)
H35G S63D G104R,ND 6.19 ND,6.19,4/9 (4.70)
N54K Y105S Y108L,4.65 ND 3.68,4.17,2/9 (4.31)
A61C G102M Y105S,4.03 5.62 4.01,4.55,2/9 (4.24)
I51E S57M D107H,ND ND ND,ND,0/9
F29H S55P F106L,5.49 4.46 ND,4.97,3/9 (5.15)
H35C S57R G102Q,ND ND ND,ND,2/9 (4.21)
G50I G56A D107N,ND ND ND,ND,0/9
G26K T28Q D62M,ND ND ND,ND,0/9
Y32D S57E G100R,ND ND ND,ND,0/9
D31P G50Q V64N,ND ND 3.58,3.58,1/9 (3.38)
G26R D107E Y108W,1.39 1.35 0.59,1.11,1/9 (5.25)
W53L I58V Y108D,1.68 1.81 0.99,1.49,3/9 (4.64)
Y60Q G104W,3.28 ND ND,3.28,0/9
F29E D30T G102P,ND ND ND,ND,0/9
S52R Y60E R101Q,ND ND 3.95,3.95,0/9

The first 4 variants above that were never detected:

changes,log10 Kd (nM) by replicate,"log10 Kd (nM), mean",empty controls
I58V V99Y Y108T,ND ND ND,ND,0/9
S57P I58H G59L,ND ND ND,ND,4/9 (3.93)
Y60G V99H,ND ND ND,ND,0/9
D30S V99R F106W,ND ND ND,ND,0/9